ChEMBL document CHEMBL4219197, “Synthesis, biological evaluation and SAR of naftopidil-based arylpiperazine derivatives” (Bioorg Med Chem Lett, 2018)

species: Homo sapiens; assay: Selectivity ratio of IC50 for alpha 1B adrenergic receptor (unknown origin) to IC50 for alpha 1A adrenergic receptor (unknown origin)

Ratio IC50	SMILES
1	Cl.Cl.Fc1ccc(N2CCN(CCc3ccc(COc4ccc5c(c4)CCCC5)cc3)CC2)cc1
16.7	COc1ccc(N2CCN(CCc3ccc(COc4ccc5c(c4)CCCC5)cc3)CC2)cc1.Cl.Cl
1.2	Cl.c1ccc(C2CCN(CCc3ccc(COc4ccc5c(c4)CCCC5)cc3)CC2)cc1
1.2	Cc1cccc(N2CCN(CCc3ccc(COc4ccc5c(c4)CCCC5)cc3)CC2)c1.Cl.Cl

SMILES	Ratio IC50
Cl.Cl.Clc1cccc(N2CCN(CCc3ccc(COc4ccc5c(c4)CCCC5)cc3)CC2)c1	0.8
